By UniProt entry, the sequences of proteins in these tests, tags left out.
UniProt O14986, whole entry: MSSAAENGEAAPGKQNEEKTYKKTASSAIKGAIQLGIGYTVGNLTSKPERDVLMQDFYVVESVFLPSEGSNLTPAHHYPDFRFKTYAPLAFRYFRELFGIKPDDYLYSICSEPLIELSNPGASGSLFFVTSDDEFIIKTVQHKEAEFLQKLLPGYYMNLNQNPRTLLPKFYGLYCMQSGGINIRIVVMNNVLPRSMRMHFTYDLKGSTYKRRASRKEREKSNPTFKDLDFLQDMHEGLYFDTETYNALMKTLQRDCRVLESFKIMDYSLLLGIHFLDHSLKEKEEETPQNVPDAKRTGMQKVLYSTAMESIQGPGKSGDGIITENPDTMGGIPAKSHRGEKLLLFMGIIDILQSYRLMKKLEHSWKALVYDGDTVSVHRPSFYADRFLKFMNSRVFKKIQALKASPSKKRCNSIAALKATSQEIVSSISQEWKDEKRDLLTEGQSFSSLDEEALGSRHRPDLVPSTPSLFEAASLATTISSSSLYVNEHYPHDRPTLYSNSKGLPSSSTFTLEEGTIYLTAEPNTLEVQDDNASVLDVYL

According to article PMC13193874, “Targeting PIP5K ameliorates hepatic cancer by inhibiting PI3K/AKT and the autophagy mechanism and enhancing ROS-mediated apoptosis” (Frontiers in Pharmacology, 2026):

Target: PIP5K1B (Homo sapiens, UniProt O14986)
Assay: cell-free kinase assay (Thermo Fisher SelectScreen, ADP detection), 10-point dose response; […] inhibition at […]

IC50	Compound
239 nM	c1ccc(Nc2nc(Nc3ccc(-c4nc5ccccc5[nH]4)cc3)nc(N3CCOCC3)n2)cc1
691 nM	c1ccc(CNc2nc(Nc3ccc(-c4nc5ccccc5[nH]4)cc3)nc(N3CCOCC3)n2)cc1
